# Experimental data: paper PMC5425475 (Frontiers in Systems Neuroscience, 2017)
# The chains behind the UniProt entries cited, without tags or fusion partners.
# UniProt Q8INQ6, entry or part of it: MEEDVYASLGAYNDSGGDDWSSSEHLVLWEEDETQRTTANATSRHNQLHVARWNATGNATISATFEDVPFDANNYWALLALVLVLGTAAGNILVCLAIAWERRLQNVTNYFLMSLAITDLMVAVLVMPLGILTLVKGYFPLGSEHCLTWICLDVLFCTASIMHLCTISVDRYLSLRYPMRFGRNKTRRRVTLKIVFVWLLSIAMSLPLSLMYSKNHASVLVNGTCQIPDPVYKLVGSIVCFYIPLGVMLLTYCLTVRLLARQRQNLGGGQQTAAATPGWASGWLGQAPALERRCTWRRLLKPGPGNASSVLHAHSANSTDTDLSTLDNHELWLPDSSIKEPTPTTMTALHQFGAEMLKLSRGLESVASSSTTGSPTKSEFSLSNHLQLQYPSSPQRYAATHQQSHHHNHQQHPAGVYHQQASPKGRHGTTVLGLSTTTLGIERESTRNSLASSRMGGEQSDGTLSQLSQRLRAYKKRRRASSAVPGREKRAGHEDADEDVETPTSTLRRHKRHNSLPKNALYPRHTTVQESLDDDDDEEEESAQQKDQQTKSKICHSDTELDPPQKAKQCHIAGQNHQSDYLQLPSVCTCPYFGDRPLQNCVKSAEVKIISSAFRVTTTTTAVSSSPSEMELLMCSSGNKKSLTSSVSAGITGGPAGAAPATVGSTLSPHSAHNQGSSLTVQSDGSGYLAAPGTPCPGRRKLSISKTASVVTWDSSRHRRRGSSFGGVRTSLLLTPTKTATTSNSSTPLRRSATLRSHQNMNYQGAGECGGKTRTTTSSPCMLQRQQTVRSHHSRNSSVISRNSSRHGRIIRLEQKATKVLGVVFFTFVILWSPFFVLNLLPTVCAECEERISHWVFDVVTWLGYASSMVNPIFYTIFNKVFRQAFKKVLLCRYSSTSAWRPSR
# Target: Dm5-HT2B (Drosophila melanogaster, UniProt Q8INQ6)
# Test: Ca2+ fluorimetry (Fluo-4), antagonists on serotonin-stimulated Dm5-HT2B-expressing HEK 293 cells
# Assay type: cell-based
# Conditions: for Maximal inhibition: relative efficacy, signal with 10^-7 M serotonin = 100%
# Protocol: The ability of the Dm5-HT2B-HA receptor (hereafter referred to as Dm5-HT2B) to activate Gq proteins was assessed by monitoring changes in [Ca^2+]i with the Ca^2+-sensitive fluorescent dye Fluo-4 (Invitrogen). Non-transfected HEK 293 cells and cells expressing Dm5-HT2B were grown in minimal essential medium (MEM + GlutaMAX^TMI (Gibco/ThermoFisher Scientific, Darmstadt, Germany) containing 2% (w/v) Utroser^TM G (Pall, Dreieich, Germany), 1 × non-essential amino acids and 1 × antibiotics/antimycotics) in 96-well plates to a density of ∼3 × 10^4 cells per well. In this format, each vertical row (=8 wells) of the 96-well plate is incubated with the same ligand concentration. Cells were loaded at room temperature with Fluo-4 as described earlier ([Thamm et al., 2013]; [Blankenburg et al., 2015]) in extracellular solution [ES = in mM: 120 NaCl, 5 KCl, 2 MgCl2, 2 CaCl2, 10 HEPES, 10 Glucose, pH 7.4 (NaOH)]. Plates were transferred into a fluorescence reader (FLUOstar Galaxy/Optima; BMG Labtech, Offenburg, Germany) to monitor Fluo-4 fluorescence. The excitation wavelength was 485 nm, and fluorescence emission was detected at 520 nm. Various concentrations of biogenic amines and synthetic receptor ligands were added, once Fluo-4 fluorescence had reached a stable value in each well. The changes in Fluo-4 fluorescence were recorded automatically. Concentration-response curves for putative agonists/antagonists were established in at least two independent experiments with octuplicate determinations (s.a.) per data point.
# Next, we examined the ability of potential receptor antagonists for impairing Dm5-HT2B activity.
Compound,Maximal inhibition [%],serotonin-evoked Ca2+ response reduced to % of control measurements without antagonist (residual signal at maximal inhibition) [%]
"CN1CCN2c3ccccc3Cc3ccccc3C2C1 (stereo not drawn) [Mianserin, mianserin]",75,25
"CN1CCC(=C2c3ccccc3C=Cc3ccccc32)CC1 [Cyproheptadine, cyproheptadine]",35,
